AlphaSeq binding of Ab-14 heavy chain variants to a spike HR2 peptide

Target: peptide PDVDLGDISGINAS, taken from heptad repeat 2 (HR2) of SARS-CoV-2 spike.

Each scFv is VH, the linker GGGGSGGGGSGGGGS, VL, as in the parent Ab-14, and differs from it in the CDRs of the heavy chain only.
VH: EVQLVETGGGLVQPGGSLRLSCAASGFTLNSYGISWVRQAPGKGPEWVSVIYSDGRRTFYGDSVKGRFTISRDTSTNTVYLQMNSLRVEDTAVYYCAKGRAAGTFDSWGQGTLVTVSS
VL: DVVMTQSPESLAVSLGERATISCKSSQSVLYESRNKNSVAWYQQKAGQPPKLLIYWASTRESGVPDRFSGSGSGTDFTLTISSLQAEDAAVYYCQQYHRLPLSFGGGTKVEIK

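The starting antibody came from a phage panning campaign against this peptide. Designed CDR sequences, proposed from the first random library and measured here. Several design methods are mixed in this list. The assay is AlphaSeq: two haploid yeast populations carry antibody and antigen on their surface. Mating (16 h, 30 °C) was followed by selection of diploids and sequencing of their barcodes. Scores were corrected for input abundance and mapped to Kd with protein pairs of known affinity run in the same pool. Mating was done six times.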

Each variant is given by its three heavy chain CDRs, as the data file delimits them; those of the parent are GFTLNSYGIS, VIYSDGRRTFYGDSVK, GRAAGTFDS.
Variants here have at most six changes.
Each Kd is an estimate from the mating assay, the geometric mean of the replicates in which the pair was seen; lower is stronger.
A pair that was not seen in any replicate is written "nd"; this usually means weak binding, but a binder can also be missed.
The authors' rule: three or more of the six replicates give a measured affinity, fewer mean a poor binder.
Values of this round are not directly comparable with the first-round values of the same sequences.
Of ten entries with the parent sequence, four were seen in most replicates (averages 2.2 nM to 240 nM), three in one and three in none, so single entries are noisy.
Background: pairings of all heavy chain designs with three empty control strains gave a value in 1% of cases (median 120 nM, 5th percentile 7.0 nM). Values in that range, when seen in few replicates, are hard to tell from nonspecific mating.

Variant KQTLNSYGIS / VIYSDGRRTFYGDSVK / GRHAGTFDS showed nd (0 of 6 replicates). For TFTLNSYGIS / VIYSDGRRTFYTDSVK / GDAAGEFDS, the assay gave nd (0 of 6 replicates). Variant GFTLNEYGIS / VIYSDGRRTFYGDSVK / GRAAGDFDS showed nd (0 of 6 replicates). For GFDLNSYGIS / VIYSDGRRTFYDDSVK / GRAAGTFNS, the assay gave 4.5 nM (1 of 6 replicates). Variant GFTLNQYGIS / VIYSDGMRTFYSDSVK / GRTAGTFDS gave 1.5 nM (6 of 6 replicates). Variant GFDLNSYGIS / VIYSDGRRTFYADSVK / GRAAGTFNS gave 2.8 nM (2 of 6 replicates). Variant GFDLNSYGIS / VIYSDGRRTFYDDSVK / GKAAGTFDV showed 97 nM (6 of 6 replicates). Variant GFTLNSYGIS / VIYSDGRRTFYGDSVL / GRAAGTFDS gave nd (0 of 6 replicates). Variant GFTLSSYGIS / VIYSAGRRTFYGDSVK / GRAAGTFDS gave nd (0 of 6 replicates).

For GFTLDSYGIS / VIYSDGRRTFYSDSVK / GQLAGTFDS, the assay gave 1.3 nM (6 of 6 replicates). Variant KFSLNNYGIS / VIYSDGRRTFYTDSVK / GRTAGTFDS showed 53 nM (4 of 6 replicates). Variant MFDLNSYGIS / VIYSDGRRTFYGDSVK / GRQAGTFDS gave 85 nM (5 of 6 replicates). For GFHLNSYGIS / VIYSDGMRTFYGDSVK / GMAAGTFDS, the assay gave nd (0 of 6 replicates). For GFTLNSYGIS / VIYSDGQRTFYGDSVK / GQTAGTFDT, the assay gave 11 nM (6 of 6 replicates). With GFTLNEYGIS / VIYSDGRRTFYTDSVK / GRFAGTFDN the result was 4.9 nM (6 of 6 replicates). Variant KFDLNSYGIS / VIYSDGRRTFYADSVK / GREAGTFDS showed 1.5 nM (6 of 6 replicates). Variant GFTLNSYGIS / VIYSDGRRCSYSDSVK / GSAAGTFDS gave 100 nM (3 of 6 replicates). Variant GFDLNSYGIS / VIYSDGWRTFYEDSVK / GRAGGTFDS showed 70 nM (1 of 6 replicates).

Variant GFTLNSYGIS / VIYSDGCRTFYIDSVK / GQAAGTFDS showed nd (0 of 6 replicates). Variant GFSLNDYGIS / VIYSDGRRTFYGDSVK / GRIAGTFES showed 910 pM (6 of 6 replicates). Variant GFWLNSYGIS / VIYSDGRRTFYADSVK / GRQAGTFDS gave 27 nM (6 of 6 replicates). Variant GFTINSYGIS / VIYSDGRRTFYSDSVK / GDAAGLFDS gave nd (0 of 6 replicates). With GFGLNEYGIS / VIYSDGRRTFYGDSVK / GRTAGTFDS the result was 1.4 nM (6 of 6 replicates). Variant KFTLNSYGIS / VIYSDGRRTFYTDSVK / GQTAGTFDS showed 4.4 nM (1 of 6 replicates). With GFSLNSYGIS / VIYSDGRRTFYGDSVK / GEIAGTFDS the result was 2.0 nM (6 of 6 replicates). Variant GFTLNSYGIS / VIYSDGRRTFYGDSVK / GRAAGCFCS gave nd (0 of 6 replicates). For GFTLNDYGIS / VIYSDGRRTAYIDSVK / GRAAGTFDS, the assay gave 1.9 nM (6 of 6 replicates).

Variant GFTLNSYGIS / VIYSDGRRTFYGDSVD / GRAAGTFDS gave nd (0 of 6 replicates). For MFWLNDYGIS / VIYSDGRRTFYHDSVK / GRTAGTFDS, the assay gave 120 nM (3 of 6 replicates). With GKTLNSYVIF / VIYADGRRTFYGDSVK / GRAAGTNKS the result was 650 nM (1 of 6 replicates). With GFTLNEYGIS / VIYSDGRRTFYGDSVK / GRAGVTFDW the result was nd (0 of 6 replicates). Variant GFTLNSYGIS / VIYSDGKRTFYSDSVK / GQAAGTFDT showed 21 nM (6 of 6 replicates). For GFTLNSYGIS / VIYSDGRRTFIGDSVK / GHAAGTFDS, the assay gave 12 nM (1 of 6 replicates). For GFHLNSYGIS / VIYSDGRRTFYIDSVK / GRLAGTFDS, the assay gave nd (0 of 6 replicates). For GFELNSYGIS / VIYSDGKRTFYGDSVK / GRTAGTFDT, the assay gave 8.8 nM (3 of 6 replicates). Variant GFTLNEYGIS / VIYSDGRRTFYQDDVK / GRAAGTFDQ gave 1.1 nM (4 of 6 replicates).

With GFTLNSYGIS / VIYSDGRRTFYGDNVK / GRGAGTFIS the result was nd (0 of 6 replicates). Variant GFTPNSYGIS / VIYSDGRRTFMGDSVK / GRAAGTFDS showed nd (0 of 6 replicates). Variant GFSLNSYGIS / VIYSDGRRTFYGDSVK / GRMAGTFDS showed 23 nM (6 of 6 replicates). Variant GFDLNSYGIS / VIYSDGRRTFYGDSVK / GKTAGTFDN gave 1.3 nM (6 of 6 replicates). Variant GFTLNEYGIS / VIYSDGRRTFYWDSVK / GRFAATFDS showed nd (0 of 6 replicates). For GFSLNSYGIS / VIYSDGQRTFYGDSVK / GRVAGTFDS, the assay gave 680 pM (6 of 6 replicates). With GFTLNSYGIS / VIYSDGRRTAYGDSVK / GQNALTFDS the result was 45 nM (4 of 6 replicates). For GFTLNSYGIS / VIYADGRRTFYGDSVK / GRAAQTFRS, the assay gave nd (0 of 6 replicates). Variant GFSLNEYGIS / VIYSDGRRTFYTDSVK / GRQAGTFDS showed 4.1 nM (6 of 6 replicates).

Variant GFDLNSYGIS / VIYSDGRRTFYADSVK / GRTAGTFDF showed 38 nM (6 of 6 replicates). With GFDLNSYGIS / VIYSDGRRTFYIDNVK / GKAAGTFDS the result was 3.2 nM (4 of 6 replicates). With GFTLNSYGIQ / VIYADGFRTFYGDSFK / GRAAGTNKS the result was nd (0 of 6 replicates).

Picked from the list: the 7 lowest averages where every replicate gave a value.

CDR-H1,CDR-H2,CDR-H3,apparent Kd,replicates with signal
GFSLNSYGIS,VIYSDGQRTFYGDSVK,GRVAGTFDS,680 pM,6 of 6
GFSLNDYGIS,VIYSDGRRTFYGDSVK,GRIAGTFES,910 pM,6 of 6
GFTLDSYGIS,VIYSDGRRTFYSDSVK,GQLAGTFDS,1.3 nM,6 of 6
GFDLNSYGIS,VIYSDGRRTFYGDSVK,GKTAGTFDN,1.3 nM,6 of 6
GFGLNEYGIS,VIYSDGRRTFYGDSVK,GRTAGTFDS,1.4 nM,6 of 6
GFTLNQYGIS,VIYSDGMRTFYSDSVK,GRTAGTFDS,1.5 nM,6 of 6
KFDLNSYGIS,VIYSDGRRTFYADSVK,GREAGTFDS,1.5 nM,6 of 6

Reference: Li et al. 2023, doi:10.1038/s41467-023-39022-2. File: FLAb, binding data.